Experiment: Lipophilicity relative to human insulin, k′rel, by isocratic RP-HPLC (LiChrosorb RP18)
Type: physicochemical
Conditions: 40° C., pH 7.3
Description: The elution was monitored by following the UV absorption of the eluate at 214 nm. Void time, t0, was found by injecting 0.1 mM sodium nitrate.

Question: Which “lipophilicity relative to human insulin, k′rel” value does the source give for “Lys^B29(N^ε-[N^α-hexadecanoyl-Glu(−)-OH]) Human Insulin [Example 37]” here?
Answer: The value was 67.

Reference: patent publication US6869930B1, “Acylated insulin” (priority 1993, dated 2005)
